Assay results taken from patent US12527762B2 (priority 2021, dated 2026).

Key:
[1] = tested on: MDA-MB-453 HER2-positive breast cancer cell line; test: Luminescent cell viability assay (CellTiter glo), subtype-specific breast cancer cell lines; type: cell-based
[2] = tested on: HCC1419 HER2-positive breast cancer cell line; test: as above; type: cell-based

For “Herceptin: positive control drug, HER2-positive breast cancer [reference compound]”, the IC50 [1] was ≥ 25 µM and the IC50 [2] was ≥ 25 µM.
